Article PMC3174055 (Biochemical Journal, 2011)

The chains behind the UniProt entries cited, without tags or fusion partners. Where a name states a change or a piece, a line headed by the entry shows the natural chain unless it says otherwise.
UniProt P42338: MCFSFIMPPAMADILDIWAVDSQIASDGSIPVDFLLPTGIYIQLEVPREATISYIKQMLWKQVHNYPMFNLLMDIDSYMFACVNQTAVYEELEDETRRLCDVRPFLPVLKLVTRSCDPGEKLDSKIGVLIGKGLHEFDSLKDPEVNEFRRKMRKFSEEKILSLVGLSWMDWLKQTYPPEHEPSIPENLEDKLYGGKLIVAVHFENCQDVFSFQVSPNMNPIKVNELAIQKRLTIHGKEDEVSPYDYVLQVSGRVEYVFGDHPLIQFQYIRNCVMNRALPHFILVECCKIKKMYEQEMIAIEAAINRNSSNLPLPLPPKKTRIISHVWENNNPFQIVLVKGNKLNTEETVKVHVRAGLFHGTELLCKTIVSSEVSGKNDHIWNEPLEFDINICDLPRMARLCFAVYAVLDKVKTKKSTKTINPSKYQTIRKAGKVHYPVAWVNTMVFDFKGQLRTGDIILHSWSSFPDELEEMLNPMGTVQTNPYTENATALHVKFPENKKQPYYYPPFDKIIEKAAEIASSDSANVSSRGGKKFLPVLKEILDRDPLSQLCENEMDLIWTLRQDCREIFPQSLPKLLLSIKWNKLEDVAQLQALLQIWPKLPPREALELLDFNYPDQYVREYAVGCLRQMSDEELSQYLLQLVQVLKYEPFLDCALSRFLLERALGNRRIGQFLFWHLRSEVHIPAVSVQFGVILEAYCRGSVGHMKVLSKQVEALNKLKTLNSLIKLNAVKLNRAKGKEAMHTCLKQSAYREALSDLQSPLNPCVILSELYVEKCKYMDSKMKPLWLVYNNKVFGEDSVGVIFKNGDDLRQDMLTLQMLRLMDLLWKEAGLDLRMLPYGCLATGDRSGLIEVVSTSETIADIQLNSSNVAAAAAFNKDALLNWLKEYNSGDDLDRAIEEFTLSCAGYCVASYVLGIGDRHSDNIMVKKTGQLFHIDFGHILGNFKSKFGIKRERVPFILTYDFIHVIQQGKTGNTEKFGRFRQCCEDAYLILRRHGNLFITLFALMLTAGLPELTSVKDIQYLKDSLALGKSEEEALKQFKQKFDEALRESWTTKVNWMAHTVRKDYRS

Biological target: p110β (Homo sapiens, UniProt P42338)
Assay: PI3K
Assay type: biochemical
Conditions: read-out: IC50 against p110β; HTRF assay

Structure (SMILES): Cc1cc(C(C)Nc2ccccc2)c2nc(N3CCOCC3)cc(=O)n2c1 (stereo not shown) [TGX-221]
- IC50: 12 nM
